Experimental data as given in ChEMBL document CHEMBL5728069, “Benzenesulfonamide compounds and their use as therapeutic agents” (2020).

Test: cells
Conditions: HEK293

## C[C@@]1(Oc2cc(F)c(S(=O)(=O)Nc3cscn3)cc2Cl)CCN(Cc2ccccc2)C1
  IC50: > 30 µM
